In the assay the target is human D2 receptor (Homo sapiens, UniProt P14416).

By UniProt entry, the sequences of proteins in these tests, tags left out.
UniProt P14416, whole entry: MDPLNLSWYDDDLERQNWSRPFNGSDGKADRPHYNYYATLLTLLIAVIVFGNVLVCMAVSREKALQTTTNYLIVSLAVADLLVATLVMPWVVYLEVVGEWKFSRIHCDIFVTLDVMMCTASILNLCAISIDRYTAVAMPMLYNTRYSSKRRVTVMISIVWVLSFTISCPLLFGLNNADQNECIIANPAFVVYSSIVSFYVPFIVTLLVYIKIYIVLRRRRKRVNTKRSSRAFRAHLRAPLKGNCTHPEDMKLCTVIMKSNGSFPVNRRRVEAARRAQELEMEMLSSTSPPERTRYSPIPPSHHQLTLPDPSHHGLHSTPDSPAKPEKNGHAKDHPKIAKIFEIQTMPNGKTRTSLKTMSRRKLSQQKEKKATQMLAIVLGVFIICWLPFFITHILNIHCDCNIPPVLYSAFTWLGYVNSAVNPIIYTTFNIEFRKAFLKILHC

Molecules are shown by their SMILES.

As for `CCCN(CCC)C1CCc2c(O)cccc2C1` (single isomer, unassigned; (-)) [(−)-5-OH-DPAT, 5-OH-DPAT], a half-maximal effect (EC50) was put at 41 ± 6 nM.

The values are drawn from PMC9898996 (Bioorganic & medicinal chemistry, 2022).
